The source of these data is article PMC6249113 (ACS chemical neuroscience, 2018).

Protein sequences, listed by entry. Tags and fused reporters are not part of them. Residues count along the entry.
UniProt Q00959, 23-1464: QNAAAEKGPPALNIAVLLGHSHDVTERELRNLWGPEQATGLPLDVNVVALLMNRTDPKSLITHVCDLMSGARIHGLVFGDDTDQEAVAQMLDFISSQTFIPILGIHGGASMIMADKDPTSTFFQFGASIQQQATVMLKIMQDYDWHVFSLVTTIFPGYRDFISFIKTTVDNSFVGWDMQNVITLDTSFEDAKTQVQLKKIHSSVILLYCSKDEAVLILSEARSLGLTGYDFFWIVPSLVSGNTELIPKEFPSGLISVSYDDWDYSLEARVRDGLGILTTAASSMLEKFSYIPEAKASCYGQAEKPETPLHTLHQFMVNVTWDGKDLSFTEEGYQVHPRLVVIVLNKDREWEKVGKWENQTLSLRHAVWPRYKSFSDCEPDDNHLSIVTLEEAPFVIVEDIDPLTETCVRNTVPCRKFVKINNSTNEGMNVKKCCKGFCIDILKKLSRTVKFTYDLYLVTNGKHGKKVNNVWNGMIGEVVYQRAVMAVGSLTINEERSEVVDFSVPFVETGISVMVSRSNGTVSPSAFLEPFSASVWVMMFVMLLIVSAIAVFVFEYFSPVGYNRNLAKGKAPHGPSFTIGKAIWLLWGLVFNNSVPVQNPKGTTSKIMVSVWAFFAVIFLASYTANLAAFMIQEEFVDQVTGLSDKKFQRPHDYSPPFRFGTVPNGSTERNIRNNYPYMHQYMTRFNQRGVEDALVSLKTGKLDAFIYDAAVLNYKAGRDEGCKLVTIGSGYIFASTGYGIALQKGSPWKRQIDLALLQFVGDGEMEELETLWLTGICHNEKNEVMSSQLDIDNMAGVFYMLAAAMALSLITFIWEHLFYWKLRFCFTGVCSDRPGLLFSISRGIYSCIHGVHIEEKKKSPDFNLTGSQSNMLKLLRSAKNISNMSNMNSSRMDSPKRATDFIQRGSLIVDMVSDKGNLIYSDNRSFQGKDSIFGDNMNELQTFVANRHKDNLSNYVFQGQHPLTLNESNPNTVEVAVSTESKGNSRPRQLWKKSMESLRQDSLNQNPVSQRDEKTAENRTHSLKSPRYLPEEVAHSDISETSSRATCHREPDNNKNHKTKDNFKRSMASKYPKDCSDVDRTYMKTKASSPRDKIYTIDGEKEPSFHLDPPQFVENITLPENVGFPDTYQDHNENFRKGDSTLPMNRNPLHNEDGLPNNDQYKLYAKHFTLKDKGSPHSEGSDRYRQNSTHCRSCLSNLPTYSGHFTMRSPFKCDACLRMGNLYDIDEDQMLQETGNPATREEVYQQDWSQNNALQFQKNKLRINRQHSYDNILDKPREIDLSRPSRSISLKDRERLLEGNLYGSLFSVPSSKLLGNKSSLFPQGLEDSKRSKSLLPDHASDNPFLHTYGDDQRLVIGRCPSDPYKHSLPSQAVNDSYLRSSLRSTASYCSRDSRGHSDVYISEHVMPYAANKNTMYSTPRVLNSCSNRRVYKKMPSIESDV

Each structure is given as a SMILES string.

Test [1] relates to NMDARs. The conditions noted are these: cited from earlier work.
Test [2] has as its target GluN1/2A receptors (Rattus norvegicus, UniProt P35439+Q00959). Type of test: cell-based. The conditions noted are these: roughly twice the IC50 of each drug (3 μM 5, 5 μM 7, 2 μM 8, 1 μM 11); 9 voltages −105 to +55 mV; fit of Equation 3.

`CC12CC3CC(C)(C1)CC(N)(C3)C2` [Compound 5, memantine, reference compound]: in test [1], the “potency at NMDARs relative to amantadine” value was “roughly fifty-fold more potent than amantadine”. Also, in test [2], the “V0, change in voltage that results in an e-fold change in the IC50” value stood at 28.0 ± 2.2 mV.
